Literature values, collected in patent US6505562B1, “Gas generator composition and molding thereof” (dated 2003).

Conditions: species and route not given

[N-]=[N+]=[N-]
acute toxicity LD50: 27 mg/kg
